From patent US10934304B2, “Spirocyclic compounds” (Recurium IP Holdings, LLC, priority 2016, dated 2021) come the findings set out here.

Chains of the proteins cited; added tags and fusions are not shown.
UniProt P28482, whole entry: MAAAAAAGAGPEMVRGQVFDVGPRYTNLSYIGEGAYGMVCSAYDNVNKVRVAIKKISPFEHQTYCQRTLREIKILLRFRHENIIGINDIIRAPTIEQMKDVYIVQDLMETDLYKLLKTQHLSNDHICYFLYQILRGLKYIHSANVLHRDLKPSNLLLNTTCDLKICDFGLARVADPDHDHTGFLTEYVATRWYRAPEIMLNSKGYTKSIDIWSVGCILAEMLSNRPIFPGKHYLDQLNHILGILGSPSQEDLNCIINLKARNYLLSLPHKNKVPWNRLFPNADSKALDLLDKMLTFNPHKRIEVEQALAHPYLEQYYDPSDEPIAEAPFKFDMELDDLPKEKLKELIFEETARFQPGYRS

Where two headings read alike, the source gives them in different places.

For assay [1], the system named is A375 (melanoma) cells. As to the kind of experiment: Proliferation Assay (CellTiter-Glo). In general terms: Cellular ATP, detected with luciferase, serves as a proxy for viable cell number.
For assay [2], the target named is ERK2 (Homo sapiens (Human), UniProt P28482). As to the kind of experiment: Active ERK1 and ERK2 Kinase Assay (Mobility Shift Assay). Format: biochemical. Particulars: read-out: ERK2 IC50, activated ERK2, Mobility Shift Assay.

Take `COc1ccc(-c2n[nH]c3ccc(N4CC[C@]5(CCN(CC(=O)N6CCC(c7ccc(-c8ncn(C)n8)cc7)CC6)C5)C4=O)nc23)cn1`: the IC50 in assay [1] (read-out: A375 IC50, 3 days incubation, CellTiter-Glo luminescence, tested form: acetate) is 500 to 1000 nM; in assay [2] (tested form: acetate) it was under 50 nM.

As for `Cn1cc(-c2n[nH]c3ccc(N4CC[C@]5(CCN(CC(=O)N6CC=C(c7ccc(-c8nn(C)c(=O)o8)cc7)CC6)C5)C4=O)nc23)cn1`, the IC50 in assay [1] (read-out: A375 IC50, 3 days incubation, CellTiter-Glo luminescence) was under 500 nM; in assay [2] it was under 50 nM.

What is called IC50 is the concentration that inhibits the measured activity by half.
